Results as given in PMC6155625 (Molecules : A Journal of Synthetic Chemistry and Natural …, 2017).

Legend:
[1] = test system: VH10 cells; assay: In vitro mammalian chromosome aberration test on VH10; type: cell-based, human; settings: 100 metaphases
Protocol: HepG2 and VH10 cells were seeded into Petri dishes (Ø = 60 mm; HepG2 inoculum of 1 × 10^6 cells/dish and VH10 inoculum of 3.8 × 10^5 cells/dish) for 2 h. Then, HF non-clastogenic concentrations (0.75 or 1.5 µM) were added and the cultures were incubated for 24 h. These concentrations of HF were chosen based on preliminary experiments (range-finding tests). Afterwards the medium was replaced with fresh medium alone or with fresh medium containing mutagens B(a)P (1.7 μM for HepG2 cells) or cisPt (0.5 μM for HepG2 cells and 0.75 μM for VH10 cells), and the HepG2 cells were cultivated further for 42 h and VH10 cells for 36 h, which approximately corresponds to 1.3 cell cycles of HepG2 and VH10 cells. Three hours before the end of the cultivation, colchicine (0.75 µg/mL) was added. Before karyological processing, the cells were counted. Slides were prepared by the standard air-drying method and were stained with 2% aqueos Giemsa-Romanowski solution for 10 min.
(§1) Chromosome aberrations were evaluated by a microscopic examination. For each sample, 100 metaphases were analyzed. We focused on the following structural aberrations; breaks, chromatid, and iso-chromatid, and exchanges, including dicentrics, rings, tri-radials and quadri-radials. The results were evaluated statistically on the basis of the difference between two relative values. The percentage of aberrant metaphases and the total number of chromosome aberrations was compared to solvent control (SC), or clastogenic effect, and positive control (PC), or anticlastogenic effect. Since the genetic significance of gaps is not clearly understood, they were not included in the assessment of chromosomal damage and thus were not evaluated statistically.

[2] = test system: CYP2D6; settings: ref 39 (Obach); cited from earlier work
[3] = test system: HepG2 cells
Protocol: Thereafter, the medium was removed, and replaced by 200 µL of DMSO. The absorbance was measured at 540 and 690 nm using an xMarkTM Microplate Spectrophotometer (Bio-Rad Laboratories, Inc., Berkeley, CA, USA).

[4] = test system: primary hepatocytes; settings: HF 2.5 and 5 µM, ref 18 (Komoroski et al.); cited from earlier work
[5] = test system: human lymphocytes; settings: HF 0.02–1 µM; preliminary experiments (unpublished data)
[6] = test system: HepG2 cells; assay: In vitro mammalian chromosome aberration test on HepG2; type: cell-based, human; settings: 100 metaphases
Protocol: HepG2 and VH10 cells were seeded into Petri dishes (Ø = 60 mm; HepG2 inoculum of 1 × 10^6 cells/dish and VH10 inoculum of 3.8 × 10^5 cells/dish) for 2 h. […] Three hours before the end of the cultivation, colchicine (0.75 µg/mL) was added. Before karyological processing, the cells were counted. Slides were prepared by the standard air-drying method and were stained with 2% aqueos Giemsa-Romanowski solution for 10 min.
as §1

[7] = test system: CYP2C9; settings: ref 39 (Obach); cited from earlier work
[8] = test system: S. typhimurium TA100; settings: S9 mix + 2-aminoflourene 50 µg/plate; unpublished data; compared with test without S9
Protocol: (§2) The Ames assay was conducted according to the method modified by Maron and Ames. In the Ames test, three bacterial strains of S. typhimurium (TA97, TA98, and TA100) were used. These strains are deficient in histidine and biotin, and, at the same time, they are deficient in excision repair. Prior to each experiment, the quality of each bacterial strain was checked similarly, as described by Berg et al.. The assay was carried out in sterile test tubes containing 100 µL (approximately 1.10^8 cells/mL) of overnight bacterial culture (overnight cultivated in 50 mL of LB medium) and 2.5 mL of the top-agar (with traces of histidine and biotin). In the case of metabolic activation, S9 mix was used to activate a promutagen 2-aminofluorene (50 µg/plate, Serva, Heidelberg, Germany). […] As positive controls (PC), the following diagnostic/direct mutagens were used: 9-aminoacridine (50 µg/plate, Serva, Heidelberg, Germany) for TA97; 4-nitroquinoline-1-oxide (20 µg/plate, Serva, Heidelberg, Germany) for TA98; and sodium azide (50 µg/plate, Serva, Heidelberg, Germany) for TA100. […] After 48 h of cultivation at 37 °C, his^+ revertants were counted. All experiments were conducted in triplicate. The data obtained were then analyzed using Student’s t-test.

[9] = test system: Salmonella typhimurium TA97; settings: S9 mix + 2-aminoflourene 50 µg/plate; unpublished data; compared with test without S9
Protocol: as §2

[10] = test system: S. typhimurium TA98; settings: S9 mix + 2-aminoflourene 50 µg/plate; unpublished data; compared with test without S9
Protocol: as §2

[11] = HF 0.75 µM alone, Table 1 experiment
[12] = HF 0.75 µM alone, Table 2 experiment
[13] = HF 1.5 µM alone, Table 1 experiment
[14] = HF 1.5 µM alone, Table 2 experiment

## Hyperforin [HF]
[1]; HF 0.75 µM alone
  Number of Aberrant Metaphases: 1
  Number of Chromosome Aberrations, Chromatid b/f: 1
  Total Number of CA: 1
[1]; HF 1.5 µM alone
  Number of Aberrant Metaphases: 1
  Number of Chromosome Aberrations, Exchange dic: 1
  Total Number of CA: 1
[2]
  type of inhibition of CYP2D6: non-competitive inhibitor
[3]; HF 0.5–15 µM
  viability of HepG2 cells (MTT): did not reduce the viability
[3]; HF 50–260 µM
  survival of HepG2 cells (MTT): significantly reduced the survival
[4]
  mitochondrial activity: caused a decrease in mitochondrial activity
[5]
  genotoxicity in comet assay: did not show any genotoxicity
[6]; [11]
  Number of Aberrant Metaphases: 2
  Number of Chromosome Aberrations, Chromatid b/f: 2
  Number of Chromosome Aberrations, Chromatid g: 1
  Total Number of CA: 2
[6]; [12]
  Number of Aberrant Metaphases: 1
  Number of Chromosome Aberrations, Chromatid b/f: 1
  Total Number of CA: 1
[6]; [13]
  Number of Aberrant Metaphases: 2
  Number of Chromosome Aberrations, Chromatid b/f: 2
  Total Number of CA: 2
[6]; [14]
  Number of Aberrant Metaphases: 3
  Number of Chromosome Aberrations, Isochromatid b/f: 1
  Total Number of CA: 3
[7]
  type of inhibition of CYP2C9: competitive inhibitor
[8]
  antimutagenic effect with S9 mix: same results
[9]
  antimutagenic effect with S9 mix: same results
[10]
  antimutagenic effect with S9 mix: same results
